Measurements published in IntAct's records for PubMed 20541704.

B1: Cyclic AMP-responsive element-binding protein 1 (Homo sapiens), P16220 (parent)
chain: MTMESGAENQQSGDAAVTEAENQQMTVQAQPQIATLAQVSMPAAHATSSAPTVTLVQLPNGQTVQVHGVIQAAQPSVIQSPQVQTVQISTIAESEDSQESVDSVTDSQKRREILSRRPSYRKILNDLSSDAPGVPRIEEEKSEEETSAPAITTVTVPTPIYQTSSGQYIAITQGGAIQLANNGTDGVQGLQTLTMTNAAATQPGTTILQYAQTTDGQQILVPSNQVVVQAASGDVQTYQIRTAPTSTIAPGVVMASSPALPTQPAEEAARKREVRLMKNREAARECRRKKKEYVKCLENRVAVLENQNKTLIEELKALKDLYCHKSD
B2: Cyclic AMP-responsive element-binding protein 1 (Homo sapiens), P16220 (parent)
chain: B1 chain
partner: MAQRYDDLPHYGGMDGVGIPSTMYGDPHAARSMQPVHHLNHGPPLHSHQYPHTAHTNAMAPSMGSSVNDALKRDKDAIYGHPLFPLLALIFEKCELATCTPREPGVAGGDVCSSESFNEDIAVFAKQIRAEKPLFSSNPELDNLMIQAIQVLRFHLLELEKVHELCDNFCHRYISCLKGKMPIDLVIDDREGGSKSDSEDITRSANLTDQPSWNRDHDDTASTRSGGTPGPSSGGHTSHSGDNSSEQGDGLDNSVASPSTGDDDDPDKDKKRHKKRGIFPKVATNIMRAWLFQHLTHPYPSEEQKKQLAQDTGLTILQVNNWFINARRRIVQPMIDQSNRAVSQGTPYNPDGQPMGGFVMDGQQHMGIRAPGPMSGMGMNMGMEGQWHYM

Variants of: B1
Details: with cbp_human CREBBP

| effect of a mutation on the interaction | Variant |
| --- | --- |
| decreasing interaction | MTMESGAENQQSGDAAVTEAENQQMTVQAQPQIATLAQVSMPAAHATSSAPTVTLVQLPNGQTVQVHGVIQAAQPSVIQSPQVQTVQISTIAESEDSQESVDSVTDSQKRREILSRRPAYRKILNDLSSDAPGVPRIEEEKSEEETSAPAITTVTVPTPIYQTSSGQYIAITQGGAIQLANNGTDGVQGLQTLTMTNAAATQPGTTILQYAQTTDGQQILVPSNQVVVQAASGDVQTYQIRTAPTSTIAPGVVMASSPALPTQPAEEAARKREVRLMKNREAARECRRKKKEYVKCLENRVAVLENQNKTLIEELKALKDLYCHKSD [S119A] |
| decreasing interaction | MTMESGAENQQSGDAAVTEAENQQMTVQAQPQIATLAQVSMPAAHATSSAPTVTLVQLPNGQTVQVHGVIQAAQPSVIQSPQVQTVQISTIAESEDSQESVDSVTDSQKRREILARRPSYRKILNDLSSDAPGVPRIEEEKSEEETSAPAITTVTVPTPIYQTSSGQYIAITQGGAIQLANNGTDGVQGLQTLTMTNAAATQPGTTILQYAQTTDGQQILVPSNQVVVQAASGDVQTYQIRTAPTSTIAPGVVMASSPALPTQPAEEAARKREVRLMKNREAARECRRKKKEYVKCLENRVAVLENQNKTLIEELKALKDLYCHKSD [S115A] |

Variants of: B2
Details: with meis1_human MEIS1, O00470

| effect of a mutation on the interaction | Variant |
| --- | --- |
| decreasing interaction | MTMESGAENQQSGDAAVTEAENQQMTVQAQPQIATLAQVSMPAAHATSSAPTVTLVQLPNGQTVQVHGVIQAAQPSVIQSPQVQTVQISTIAESEDSQESVDSVTDSQKRREILSRRPAYRKILNDLSSDAPGVPRIEEEKSEEETSAPAITTVTVPTPIYQTSSGQYIAITQGGAIQLANNGTDGVQGLQTLTMTNAAATQPGTTILQYAQTTDGQQILVPSNQVVVQAASGDVQTYQIRTAPTSTIAPGVVMASSPALPTQPAEEAARKREVRLMKNREAARECRRKKKEYVKCLENRVAVLENQNKTLIEELKALKDLYCHKSD [S119A] |
| decreasing interaction | MTMESGAENQQSGDAAVTEAENQQMTVQAQPQIATLAQVSMPAAHATSSAPTVTLVQLPNGQTVQVHGVIQAAQPSVIQSPQVQTVQISTIAESEDSQESVDSVTDSQKRREILARRPSYRKILNDLSSDAPGVPRIEEEKSEEETSAPAITTVTVPTPIYQTSSGQYIAITQGGAIQLANNGTDGVQGLQTLTMTNAAATQPGTTILQYAQTTDGQQILVPSNQVVVQAASGDVQTYQIRTAPTSTIAPGVVMASSPALPTQPAEEAARKREVRLMKNREAARECRRKKKEYVKCLENRVAVLENQNKTLIEELKALKDLYCHKSD [S115A] |
